{"sequences": {"note": "Chains of the proteins cited; added tags and fusions are not shown.", "UniProt Q01827, whole entry": "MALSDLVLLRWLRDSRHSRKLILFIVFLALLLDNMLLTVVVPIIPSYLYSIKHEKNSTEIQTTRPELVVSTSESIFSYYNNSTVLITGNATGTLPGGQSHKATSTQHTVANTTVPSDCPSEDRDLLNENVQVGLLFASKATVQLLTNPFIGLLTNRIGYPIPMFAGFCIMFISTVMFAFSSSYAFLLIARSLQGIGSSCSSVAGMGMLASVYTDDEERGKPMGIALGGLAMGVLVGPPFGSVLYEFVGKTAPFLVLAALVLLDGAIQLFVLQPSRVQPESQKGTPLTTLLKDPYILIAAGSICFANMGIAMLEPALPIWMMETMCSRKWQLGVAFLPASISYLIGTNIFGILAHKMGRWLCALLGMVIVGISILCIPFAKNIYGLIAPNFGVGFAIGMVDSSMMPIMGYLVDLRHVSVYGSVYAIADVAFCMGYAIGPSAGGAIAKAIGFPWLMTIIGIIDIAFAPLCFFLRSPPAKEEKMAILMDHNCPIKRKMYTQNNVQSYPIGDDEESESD"}, "source": "ChEMBL document CHEMBL1129286", "about": "“In vitro and in vivo studies of benzisoquinoline ligands for the brain synaptic vesicle monoamine transporter” (J Med Chem, 1996)", "target": "Synaptic vesicular amine transporter (Rattus norvegicus, UniProt Q01827)", "test": "In vitro inhibition of [3H]- Methoxytetrabenazine binding to rat brain vesicular monoamine transporter 2 (VMAT2)", "summary_of_the_method": "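Autoradiographic competition on rat brain coronal sections (20, caudate-putamen level) on slides. Sections prewashed at 25 °C in sucrose buffer (300 mM sucrose, 50 mM Tris, 1 mM EDTA, pH 8.0), then incubated 3 h with 10 nM [3H]methoxytetrabenazine and test drug from 1 nM. Washed 3 × 3 min, dipped in 4 °C water, air-dried, film-exposed 2 weeks. Striatal densitometry against calibrated standards; Ki by nonlinear one-/two-site fitting; mean ± SD, n = 3.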", "data": [{"smiles": "COc1cc2c(cc1OC)[C@H]1CC(=O)[C@H](CC(C)C)CN1CC2", "values": [{"measurement": "Ki", "value": 8.1, "unit": "nM"}]}]}
